# Reported melting point values for industrial, environmental and drug-like chemicals

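The OPERA project collected these measurements from public sources as training and test data for property models. One number stands for a compound and property, with no spread given. Method, purity and exact conditions of the single measurements are not given. A value may pool stereoisomers or salt forms, and the file does not say which form was measured. Some upstream entries may be estimates or bounds without being marked so.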

Melting points are in °C. "via" names the databases from which the curators took the value.

- NC(=O)N(c1ccccc1)c1ccccc1 [N,N-Diphenylurea]: MP 189 °C (via OCHEM)
- NC(=O)N1CCCC1 [1-Pyrrolidinecarboxamide]: MP 223 °C (via OCHEM)
- CC(=O)NC(C(=O)O)C1CCCC1 (stereo not given) [Acetamido(cyclopentyl)acetic acid]: MP 173 °C (via OCHEM)
- O=C(O)CC1SC(Nc2ccccc2)=NC1=O (stereo not given) [(2-Anilino-4-oxo-4,5-dihydro-1,3-thiazol-5-yl)acetic acid]: MP 203 °C (via OCHEM)
- NC(=S)Cc1nc2ccccc2[nH]1 [(1H-Benzimidazol-2-yl)ethanethioamide]: MP 206 °C (via OCHEM)
- O=C(O)c1cccc(S(=O)(=O)N2CCc3ccccc3C2)c1 [3-(3,4-Dihydro-1H-isoquinoline-2-sulfonyl)-benzoic acid]: MP 56.5 °C (via OCHEM)
- COc1ccc2nc(C)cc(Cl)c2c1 [4-Chloro-6-methoxy-2-methylquinoline]: MP 100 °C (via OCHEM)
- Cc1ccc(S(=O)(=O)N(CCC(=O)O)c2ccccc2)cc1 [N-(4-Methylbenzene-1-sulfonyl)-N-phenyl-beta-alanine]: MP 146 °C (via OCHEM)
- CC(C)(C)c1cc(C(C)(CC(=O)OCCOC(=O)CC(C)(c2ccc(O)c(C(C)(C)C)c2)c2ccc(O)c(C(C)(C)C)c2)c2ccc(O)c(C(C)(C)C)c2)ccc1O: MP 169.3 °C (via eChemPortal)
- CCN(CC)S(=O)(=O)c1cccc(N)c1 [3-Amino-N,N-diethylbenzene-1-sulfonamide]: MP 85 °C (via OCHEM)
- O=C(O)c1sccc1S(=O)(=O)N1CCCCC1 [3-(Piperidine-1-sulfonyl)thiophene-2-carboxylic acid]: MP 112 °C (via OCHEM)
- O=C(O)c1ccccc1NS(=O)(=O)c1ccc(F)cc1 [Benzoic acid, 2-(((4-fluorophenyl)sulfonyl)amino)-]: MP 166 °C (via OCHEM)
- CC(C)(C)N(NC(=O)c1ccccc1)C(=O)c1c(F)c(F)c(F)c(F)c1F [N'-Benzoyl-N-tert-butyl-2,3,4,5,6-pentafluorobenzohydrazide]: MP 200 °C (via OCHEM)
- Cc1ccc(S(=O)(=O)Cl)c(Br)c1 [2-Bromo-4-methylbenzene-1-sulfonyl chloride]: MP 71 °C (via OCHEM)
- Cc1nc2ncnn2c(C)c1CCC(=O)O: MP 225 °C (via OCHEM)
- Cc1sc2nc(CCl)nc(Cl)c2c1C: MP 143 °C (via OCHEM)
- Cn1ccnc1C(=O)c1ccc(N)cc1 [(4-aminophenyl)(1-methyl-1H-imidazol-2-yl)methanone]: MP 71 °C (via OCHEM)
- CN(C)S(=O)(=O)c1ccc(C(=O)CBr)cc1 [4-(Bromoacetyl)-N,N-dimethylbenzene-1-sulfonamide]: MP 91 °C (via OCHEM)
- CN(C1CCCCC1)S(=O)(=O)c1ccc(N)cc1 [4-Amino-N-cyclohexyl-N-methylbenzene-1-sulfonamide]: MP 143 °C (via OCHEM)
- Nc1ccc(Cc2nc3ccccc3s2)cc1 [4-(1,3-benzothiazol-2-ylmethyl)aniline]: MP 220 °C (via OCHEM)
- O=[N+]([O-])c1ccc2c(c1)S(=O)(=O)C=C2 [6-Nitro-1-benzothiophene 1,1-dioxide]: MP 180 °C (via OCHEM)
- CCOc1ccccc1OCC(=O)O [(2-Ethoxy-phenoxy)-acetic acid]: MP 45 °C (via OCHEM)
- Cn1c(=O)c2c(ncn2CCCC(=O)O)n(C)c1=O: MP 168 °C (via OCHEM)
- CCOC(=O)c1cnn2c1nc(Cl)c1ccccc12 [ethyl 5-chloropyrazolo[1,5-a]quinazoline-3-carboxylate]: MP 130 °C (via OCHEM)
- O=C1NC(=O)C2(CCCC2)N1 [1,3-Diazaspiro(4.4)nonane-2,4-dione]: MP 141 °C (via OCHEM)
- Nc1ccc(-n2cncn2)c(F)c1 [3-Fluoro-4-(1H-1,2,4-triazol-1-yl)aniline]: MP 127 °C (via OCHEM)
- O=C(O)c1cc(-c2cccnc2)nc2ccccc12 [Cinchoninic acid, 2-(3-pyridyl)-]: MP 324 °C (via OCHEM)
- O=C1CCc2cc(O)ccc2N1 [6-Hydroxy-3,4-dihydro-2(1H)-quinolinone]: MP 240 °C (via OCHEM)
- Fc1cc2[nH]c(=S)[nH]c2cc1F [5,6-difluoro-1H-benzimidazole-2-thiol]: MP 292 °C (via OCHEM)
- O=C(O)CSCC(=O)N1CCCCC1 [[(2-oxo-2-piperidin-1-ylethyl)thio]acetic acid]: MP 92 °C (via OCHEM)
- OCCc1nc2ccccc2s1 [2-(1,3-Benzothiazol-2-yl)ethan-1-ol]: MP 42 °C (via OCHEM)
- O=C([O-])c1cc(S(=O)(=O)[O-])ccc1/N=N/[C-](/N=N/c1cc(S(=O)(=O)[O-])cc(Nc2nc(Cl)nc(Nc3cc(S(=O)(=O)[O-])c(Nc4nc(Cl)nc(Nc5cccc(S(=O)(=O)[O-])c5)n4)cc3S(=O)(=O)[O-])n2)c1[O-])c1ccccc1.[Cu+2].[H+].[Na+].[Na+].[Na+].[Na+].[Na+]: MP 170 °C (via eChemPortal)
- O=S(=O)(c1ccc(Cl)nc1)N1CCOCC1 [4-(6-chloro-pyridine-3-sulfonyl)-morpholine]: MP 144 °C (via OCHEM)
- Cc1ccc(Nc2nc(Nc3ccc(C)cc3)c(N=Nc3ccccc3C(F)(F)F)c(C)c2C#N)cc1: MP 247.1 °C (via eChemPortal)
- NN1C(=O)NC(c2ccccc2)(c2ccccc2)C1=O [N-Aminodiphenylhydantoin]: MP 190 °C (via OCHEM)
- Nc1nc2c(s1)CCc1ccccc1-2 [4,5-Dihydronaphtho[1,2-d][1,3]thiazol-2-amine]: MP 62 °C (via OCHEM)

The 4 lowest values of MP among the entries above:

SMILES	name	MP (°C)	via
OCCc1nc2ccccc2s1	2-(1,3-Benzothiazol-2-yl)ethan-1-ol	42	OCHEM
CCOc1ccccc1OCC(=O)O	(2-Ethoxy-phenoxy)-acetic acid	45	OCHEM
O=C(O)c1cccc(S(=O)(=O)N2CCc3ccccc3C2)c1	3-(3,4-Dihydro-1H-isoquinoline-2-sulfonyl)-benzoic acid	56.5	OCHEM
Nc1nc2c(s1)CCc1ccccc1-2	4,5-Dihydronaphtho[1,2-d][1,3]thiazol-2-amine	62	OCHEM

From the experimental data distributed with OPERA 2.9.